Data as given in patent publication US20040120943.
“Also recorded” adds a separate entry of the source.

Legend:
[1] = biological target: fibrin (fibrin I monomers) (UniProt P02671)
[2] = biological target: fibrinogen (UniProt P02671)
[3] = biological target: protein C (UniProt P04070)
[4] = tested on: TR^33-62, extracellular fragment of the platelet receptor PAR-1 spanning residues 33-62

variant thrombin E217A
Fibrin kcat/Km [1]: 0.15 µM⁻¹ s⁻¹
Fibrinogen kcat/Km [2]: 0.27 µM⁻¹ s⁻¹
Protein C + TM kcat/Km (100 nM rabbit thrombomodulin, 5 mM CaCl2) [3]: 140 mM⁻¹ s⁻¹
Protein C - TM kcat/Km (no thrombomodulin, 5 mM CaCl2) [3]: 15 M⁻¹ s⁻¹
PAR1 kcat/Km [4]: 0.66 µM⁻¹ s⁻¹

variant thrombin W215A
Fibrin kcat/Km (fibrinopeptide B release from fibrin I monomers) [1]: 0.053 µM⁻¹ s⁻¹
Fibrinogen kcat/Km (fibrinopeptide A release) [2]: 0.034 µM⁻¹ s⁻¹
fold loss of fibrinogen cleavage against wild-type [2]: The disruption of fibrinogen cleavage reaches 500-fold
fold reduction of clotting activity against wild-type [2]: severely compromised clotting activity (about a 500-fold reduction)
Protein C kcat/Km, with 100 nM rabbit thrombomodulin and 5 mM CaCl2 [3]: 0.075 µM⁻¹ s⁻¹
fold loss of protein C cleavage (with thrombomodulin) against wild-type [3]: insignificant loss of protein C cleavage (only about 3-fold)
fold reduction of protein C activation without thrombomodulin against wild-type [3]: The activation of protein C is substantially reduced (150-fold) in the absence of thrombomodulin
PAR-1 kcat/Km (cleavage of TR33-62) [4]: 1 µM⁻¹ s⁻¹
fold reduction of PAR-1 cleavage against wild-type [4]: the reduction in antithrombin III binding and PAR-1 cleavage is about 20-fold; also recorded: moderate loss of PAR-1 cleavage (26-fold reduction)

variant thrombin W215A/E217A (WE)
Fibrin kcat/Km [1]: 0.0021 µM⁻¹ s⁻¹
fold reduction of fibrin cleavage against wild-type [1]: cleavage of fibrinogen and fibrin are reduced 19,000-fold and 3,800-fold respectively
ΔGc (coupling free energy between the W215A and E217A mutations, from kcat/Km for fibrin) [1]: -0.5 kcal/mol
Fibrinogen kcat/Km [2]: 0.00089 µM⁻¹ s⁻¹
fold reduction of fibrinogen cleavage against wild-type [2]: cleavage of fibrinogen and fibrin are reduced 19,000-fold and 3,800-fold respectively
ΔGc (coupling free energy between the W215A and E217A mutations, from kcat/Km for fibrinogen) [2]: -0.3 kcal/mol
Protein C + TM kcat/Km (100 nM rabbit thrombomodulin, 5 mM CaCl2) [3]: 33 mM⁻¹ s⁻¹
Protein C - TM kcat/Km (no thrombomodulin, 5 mM CaCl2) [3]: 0.57 M⁻¹ s⁻¹
fold reduction of kcat/Km for protein C with thrombomodulin against wild-type [3]: The value of kcat/Km is reduced 300-fold in the absence of thrombomodulin and only 7-fold in the presence of the cofactor
fold reduction of kcat/Km for protein C without thrombomodulin against wild-type [3]: The value of kcat/Km is reduced 300-fold in the absence of thrombomodulin and only 7-fold in the presence of the cofactor
rate of protein C activation with thrombomodulin against wild-type [3]: at a rate only 6-fold slower compared to wild-type thrombin
ΔGc (coupling free energy between the W215A and E217A mutations, from kcat/Km for protein C with thrombomodulin) [3]: 0.2 kcal/mol
ΔGc (coupling free energy between the W215A and E217A mutations, from kcat/Km for protein C without thrombomodulin) [3]: -1.1 kcal/mol
PAR1 kcat/Km [4]: 0.026 µM⁻¹ s⁻¹
fold reduction of PAR-1 cleavage against wild-type [4]: Cleavage of PAR-1 by the W215A/E217A mutant is reduced 1,000-fold compared to wild-type
ΔGc (coupling free energy between the W215A and E217A mutations, from kcat/Km for PAR1) [4]: 0 kcal/mol

wild-type human α-thrombin
Fibrin kcat/Km [1]: 8.1 µM⁻¹ s⁻¹
Fibrin kcat/Km (fibrinopeptide B release from fibrin I monomers) [1]: 8.1 µM⁻¹ s⁻¹
Fibrinogen kcat/Km [2]: 17 µM⁻¹ s⁻¹
Fibrinogen kcat/Km (fibrinopeptide A release) [2]: 17 µM⁻¹ s⁻¹
Protein C + TM kcat/Km (100 nM rabbit thrombomodulin, 5 mM CaCl2) [3]: 220 mM⁻¹ s⁻¹
Protein C - TM kcat/Km (no thrombomodulin, 5 mM CaCl2) [3]: 150 M⁻¹ s⁻¹
Protein C kcat/Km, with 100 nM rabbit thrombomodulin and 5 mM CaCl2 [3]: 0.22 µM⁻¹ s⁻¹
Km for cleavage of TR33-62 [4]: Attempts to measure the value of Km indicated a value >10 µM
PAR1 kcat/Km [4]: 26 µM⁻¹ s⁻¹
PAR-1 kcat/Km (cleavage of TR33-62) [4]: 26 µM⁻¹ s⁻¹
